Key:
antithrombin III [1] = target: antithrombin III (UniProt P01008); assay: inhibition of thrombin by antithrombin III with heparin
antithrombin III [2] = target: antithrombin III (UniProt P01008); assay: inhibition of thrombin by antithrombin III, 0.5 USP units/mL heparin, pH 7.4, 37 °C
protein C = protein C (UniProt P04070); assay: cell-based or functional assay
antithrombin III [3] = target: antithrombin III (UniProt P01008); assay: calculated from kon for antithrombin III of wild-type and mutants

## variant thrombin W215A (from UniProt P00734 364-622) (enzyme; other documents disagree on this pair)
Antithrombin III [1]
  fold loss against wild-type: 25 fold
  fold reduction against wild-type: 20 fold
Antithrombin III [2]
  kon: 560000 M⁻¹ s⁻¹

## variant thrombin W215A/E217A (WE) (from UniProt P00734 364-622) (enzyme)
Protein C
  progress curve of protein C activation with 100 nM rabbit thrombomodulin against wild-type: 7 fold

## variant thrombin W215A/E217A (WE) (from UniProt P00734 364-622) (enzyme; other documents disagree on this pair)
Antithrombin III [1]
  fold reduction in the rate of inactivation against wild-type: 3000 fold
Antithrombin III [3]
  ΔGc (coupling free energy between the W215A and E217A mutations): 1.5 kcal/mol
Antithrombin III [2]
  kon: 4000 M⁻¹ s⁻¹

## wild-type human α-thrombin (from UniProt P00734 328-363; P00734 364-622) (enzyme; other documents disagree on this pair)
Antithrombin III [2]
  kon: 1.3e+07 M⁻¹ s⁻¹

## variant thrombin E217A (from UniProt P00734 328-363; P00734 364-622) (enzyme)
Antithrombin III [2]
  kon: 1e+06 M⁻¹ s⁻¹
